# Measurements taken from US11319341B2, “Immune-stimulating soluble doxorubicin-conjugated complex” (Yafei (Shanghai) Biopharmaceutical Co., Ltd., priority 2016, dated 2022).
# Legend:
# CT26 tumor cells = assay: CT26 tumor immune model: inhibition of tumor; assay type: in vivo; conditions: CT26 subcutaneous tumor, BALB/c mice, compounds 18 μmol/kg, mouse PD-1 antibody 5 mg/kg
# Experimental: Test purpose: to investigate the anti-tumor efficacy of different compounds in CT26 cancer model for immune treatment.
# (§1) Test drug: QHL-096, QHL-087, QHL-090, QHL-093, QHL-117 and controls, all used in 18 μmol/kg; mouse PD-1 antibody, 5 mg/kg.
# 1) CT26 tumor cells were purposed from ATCC.
# (§2) Mice were randomly grouped after the tumor reached at least 100 mm^3 Then treatment began and the day on which the treatment began was day 1.
# tumor CD8+ T cells = assay: CT26 tumor immune model: tumor CD8+ T cells (CD8 positive in CD45 positive cells, flow cytometry); assay type: in vivo, BALB/c mice; conditions: ratio of CD8 positive cells in CD45 positive cells in tumor, compounds 18 μmol/kg, PD-1 antibody 5 mg/kg
# Experimental: as §1, §2
# 3) Analysis on tumor CD8+ T cells. The tumor tissue was homogenated and individual cells in the tumor were filtered, separated and washed by buffer twice, then cultivated with the leucocyte common antigen CD45-PE and CD8-FITC marked antibodies for 1 hour at ambient temperature. The cells were washed by phosphate buffer containing 1% fetal bovine serum twice and then analyzed for the ratio of the T lymphocyte antigen (CD8) positive cells in the leucocyte common antigen (CD45) positive cells by flow cytometry. Increasement of the ratio indicates increased T lymphocyte cells and thus the animal immunity against the tumor was improved.
substance,measurement,setting,value
PD-1,inhibitory rate on tumor % Day 18,CT26 tumor cells; Day 18 as printed,16.6%
same,Size of tumor (mm^3) Day 28,CT26 tumor cells; Day 28,1574.6 ± 474.5 mm^3
same,CD8:CD45 (%),tumor CD8+ T cells,6.1%
